Experimental data: patent publication US6962920B2, “Pyrimidine derivatives and methods of making and using these derivatives” (Duquesne University of the Holy Ghost, priority 1992, dated 2005)

Experiments:
[1] = molecular target: T1, human recombinant (REC) DHFR (Homo sapiens, UniProt P00374); assay: Inhibition of human recombinant DHFR; type: biochemical; conditions: Table 17
T1 sequence (P00374 1-187): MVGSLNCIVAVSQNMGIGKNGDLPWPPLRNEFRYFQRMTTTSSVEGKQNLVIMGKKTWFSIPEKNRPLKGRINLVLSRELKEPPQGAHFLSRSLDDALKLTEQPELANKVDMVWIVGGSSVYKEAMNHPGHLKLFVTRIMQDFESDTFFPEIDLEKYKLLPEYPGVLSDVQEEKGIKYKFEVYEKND

Pc DHFR = molecular target: T2, Pc DHFR (Pneumocystis carinii, UniProt P16184); type: biochemical; conditions: Table 7
T2 sequence (P16184 1-206): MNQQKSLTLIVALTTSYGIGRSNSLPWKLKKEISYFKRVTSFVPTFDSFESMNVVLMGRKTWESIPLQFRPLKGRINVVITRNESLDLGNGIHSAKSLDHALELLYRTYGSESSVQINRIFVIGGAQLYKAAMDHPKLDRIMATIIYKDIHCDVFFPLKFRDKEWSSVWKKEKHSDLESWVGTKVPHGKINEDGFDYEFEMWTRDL

SMILES	IC50 [1]	IC50 (Pc DHFR)
Nc1nc(N)c2c(CCc3ccc(C(=O)N[C@@H](CCC(=O)O)C(=O)O)cc3)coc2n1 [Compound 33, N-[4-[2-(2,4-diaminofuro[2,3-d]pyrimidin-5-yl)ethyl]-benzoyl]-L-glutamic acid]	1000 nM	–
COc1ccc(OC)c(Cc2cnc3nc(N)nc(N)c3c2C)c1 [PTX, piritrexim, reference compound]	–	38 nM
